The values that follow are results of earlier work, collected in patent publication US20050009124A1, “Assays for detection of phosphoinositide kinase and phosphatase activity” (Echelon Biosciences Incorporated, priority 2001, published 2005).

Amino acid sequences for entries named in this document (tags omitted).
UniProt P48736, whole entry, species assumed: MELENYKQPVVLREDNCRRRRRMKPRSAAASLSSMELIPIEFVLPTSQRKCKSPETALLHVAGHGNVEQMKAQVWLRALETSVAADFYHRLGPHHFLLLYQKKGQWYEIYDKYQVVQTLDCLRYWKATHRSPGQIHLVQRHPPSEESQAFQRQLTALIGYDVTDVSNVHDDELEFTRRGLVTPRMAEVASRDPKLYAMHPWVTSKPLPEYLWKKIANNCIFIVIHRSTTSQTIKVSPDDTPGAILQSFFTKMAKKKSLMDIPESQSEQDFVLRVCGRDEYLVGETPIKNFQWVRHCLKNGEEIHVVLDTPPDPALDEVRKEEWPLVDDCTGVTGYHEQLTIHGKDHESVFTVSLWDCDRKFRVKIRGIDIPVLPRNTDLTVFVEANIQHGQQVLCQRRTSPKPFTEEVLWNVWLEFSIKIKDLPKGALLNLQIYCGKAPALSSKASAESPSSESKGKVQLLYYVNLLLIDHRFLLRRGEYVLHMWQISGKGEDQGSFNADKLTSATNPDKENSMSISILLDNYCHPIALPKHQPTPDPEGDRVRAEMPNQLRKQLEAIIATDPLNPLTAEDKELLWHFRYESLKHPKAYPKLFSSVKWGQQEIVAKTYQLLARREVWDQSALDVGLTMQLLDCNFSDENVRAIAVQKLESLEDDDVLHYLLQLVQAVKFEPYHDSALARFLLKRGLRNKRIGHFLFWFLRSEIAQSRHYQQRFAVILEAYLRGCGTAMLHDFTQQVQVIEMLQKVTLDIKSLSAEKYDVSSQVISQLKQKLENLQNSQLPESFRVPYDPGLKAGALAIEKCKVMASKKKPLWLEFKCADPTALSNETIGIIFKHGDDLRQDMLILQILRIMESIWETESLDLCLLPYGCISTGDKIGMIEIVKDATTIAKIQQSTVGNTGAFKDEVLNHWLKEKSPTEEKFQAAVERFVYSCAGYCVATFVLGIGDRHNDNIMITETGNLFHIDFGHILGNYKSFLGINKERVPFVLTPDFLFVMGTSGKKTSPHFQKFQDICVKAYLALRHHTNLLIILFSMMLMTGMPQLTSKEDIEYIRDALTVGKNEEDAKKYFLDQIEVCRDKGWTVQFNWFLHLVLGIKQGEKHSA

In this data set the target is PI 3-Kγ (Homo sapiens, UniProt P48736). Conditions: read-out: Reported IC50 Values, cited from earlier work.

Read-outs that look alike come from different tables or passages of the source.

On to `O=c1cc(N2CCOCC2)oc2c(-c3ccccc3)cccc12` [LY294002], for which the IC50 (in general, the concentration at which inhibition is half-maximal) is, setting by setting: (PI 3-Kγ) 5.6 µM; (recombinant PI 3-Kγ) 2.8 µM.
